## Antibody variant affinities, Ab-14 heavy chain, assay B

Data: MIT Lincoln Laboratory AlphaSeq set, Li et al. 2023, doi:10.1038/s41467-023-39022-2, as distributed in FLAb.

The target is the same throughout: PDVDLGDISGINAS, from the HR2 region of SARS-CoV-2 spike.

Parent scFv Ab-14: VH joined to VL by three GGGGS repeats. Changes lie in the heavy chain CDRs alone.
VH: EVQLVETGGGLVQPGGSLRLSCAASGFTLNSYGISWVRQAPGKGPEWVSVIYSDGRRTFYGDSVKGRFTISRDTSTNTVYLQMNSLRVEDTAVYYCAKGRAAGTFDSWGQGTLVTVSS
VL: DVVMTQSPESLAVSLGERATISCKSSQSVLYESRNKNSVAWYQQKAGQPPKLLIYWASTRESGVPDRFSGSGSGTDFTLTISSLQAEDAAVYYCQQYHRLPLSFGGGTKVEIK

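These sequences belong to a second round, designed from the earlier measurements on random variants of the parent. Group labels follow the data file (En: ensemble of fine-tuned language models; HC: hill climbing; Gen: genetic algorithm; Gibbs: Gibbs sampling; a sequence that several methods proposed may carry one label only). The scFvs were displayed on barcoded MATa yeast, the peptide on MATalpha yeast. After mating in shaken culture at 30 °C for 16 h, diploids were selected and their barcode pairs sequenced. Each replicate has its own calibration line, from reference interactions of the BCL2 family. There are six technical replicates.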

The parent's heavy chain CDRs are GFTLNSYGIS, VIYSDGRRTFYGDSVK, GRAAGTFDS; each variant's own CDRs replace them letter for letter.
Variants here have more than six changes.
Kd is apparent (estimated from mating counts) and averaged on the log scale over replicates with a signal. Smaller is tighter.
"nd" means that the variant was in the library but no mating with the target was seen in any replicate; the authors take this as a sign of poor binding, and no number exists.

The variant GFDLNEYGIS / VIYADGMRTAYADSVK / GDNAGTFDV [En_Gen] showed 450 pM (6 of 6 replicates). With GFDLDEYGIS / VIYADGMRTAYADSVK / GNNAGTFDL [En_Gen] the result was 490 pM (6 of 6 replicates). The variant GFDLNEYGIS / VIYADGVRTAYSDSVK / GGNAGTFDS [En_HC] showed 2.0 nM (6 of 6 replicates). With GFDLNEYGIS / VIYADGHRTFYSDSVK / GQSAGTFDM [En_HC] the result was 1.1 nM (6 of 6 replicates). For GFDLNEYGIS / VIYADGMRTFYTDSVK / GENAGTFDI [En_Gen], the assay gave 62 pM (6 of 6 replicates). The variant GFDLDEYGIS / VIYADGKRTAYSDSVK / GNVAGTFDM [En_Gen] gave 210 pM (5 of 6 replicates). The variant GFDLNEYGVS / VIYADGIRSTYADSFK / GNVGVAFFQ [En_Gibbs] showed 30 µM (1 of 6 replicates). For GFDLNEYGIS / VIYADGMRTAYADSVK / GETAGTFDT [En_Gen], the assay gave 450 pM (6 of 6 replicates). The variant GFDLNEYGIS / VIYADGRRTAYGDSVK / GETAGTFDQ [En_HC] gave 230 pM (6 of 6 replicates).

The variant GADLQEYGIS / VIYADGNRYAYANSVK / GTQAGSLIV [En_Gibbs] showed nd (0 of 6 replicates). The variant GFDLNEYGIS / VIYADGMRTAYTDNVK / GNVAGTFDV [En_Gen] gave nd (0 of 6 replicates). For GFNLNEYGIS / VIYADGRRTFYSDSVK / GEEAGTFDV [En_HC], the assay gave 260 pM (6 of 6 replicates). With GFDLNEYGIS / VIYADGKRTYYADSVK / GQVAGTFDQ [En_HC] the result was 640 pM (6 of 6 replicates). The variant GFDLNEYGIS / VIYADGKRTAYADDVK / GNNAGTFDI [En_Gen] gave 630 pM (6 of 6 replicates). With GDGLEEYGIS / VIYADGMRESYVNDVK / GQKGGIFNL [En_Gibbs] the result was nd (0 of 6 replicates). With FQLLDDYGIS / VIYADGKRNAYVADVK / GNVAGTFDV [En_Gibbs] the result was 11 nM (6 of 6 replicates). The variant GFDLNEYGIS / VIYADGIRTAYADSVK / GNVAGTFDI [En_Gen] gave 220 pM (6 of 6 replicates). The variant GFDLNEYGIS / VIYADGVRTAYTDSVK / GHAAGTFDL [En_HC] gave 220 pM (6 of 6 replicates).

The variant GFDLDEYGIS / VIYADGMRTAYSDSVK / GANAGTFDV [En_Gen] gave 220 pM (6 of 6 replicates). With GFDLDEYGIS / VIYADGQRTFYTDSVK / GGNAGTFDV [En_HC] the result was 380 pM (6 of 6 replicates). For GFDLDQYGIS / VIYADGRRTQYADDVK / GKYAGSMLS [En_Gibbs], the assay gave nd (0 of 6 replicates). The variant GFDLNEYGIS / VIYADGIRTFYADSVK / GNIAGTFDS [En_HC] showed 300 pM (6 of 6 replicates). The variant GFDLNEYGIS / VIYADGRRTAYIDSVK / GEAAGTFDE [En_HC] showed 320 pM (6 of 6 replicates). For GFDLNEYGIS / VIYADGSRTVYADSVK / GQNAGTFDV [En_Gen], the assay gave 160 pM (6 of 6 replicates). The variant GFDLNEYGIS / VIYADGQRTAYADDVK / GNVAGTFDM [En_Gen] gave 2.4 nM (6 of 6 replicates). With GFNLDEYGIS / VIYADGQRTAYDQAVK / GRMGTWNIV [En_Gibbs] the result was 490 pM (6 of 6 replicates). For GFDLNEYGIS / VIYADGMRTHYTDSVK / GNEAGTFDE [En_HC], the assay gave 520 pM (6 of 6 replicates).

The variant GFDLNEYGIS / VIYADGMRTAYADSVK / GEVAGTFDI [En_Gen] showed 1.1 nM (5 of 6 replicates). With GMSLLEYGIS / VIYADGRRTAYTDSFK / GGSVKDTFV [En_Gibbs] the result was 1.9 nM (6 of 6 replicates). The variant GFDLNEYGIS / VIYADGSRTFYADSVK / GEVAGTFDV [En_Gen] showed 430 pM (6 of 6 replicates). The variant GFNLDEYGIS / VIYADGKRTRYANDVK / GGYGGIMLS [En_Gibbs] gave nd (0 of 6 replicates). With GFDLDEYGIS / VIYADGQRTFYADSVK / GNQAGTFDV [En_Gen] the result was 120 pM (4 of 6 replicates). The variant GFDLNEYGIS / VIYADGMRTSYADSVK / GETAGTFDL [En_Gen] gave 480 pM (6 of 6 replicates). For GFDLNEYGIS / VIYADGHRTFYSDSVK / GQSAGTFDV [En_HC], the assay gave 490 pM (6 of 6 replicates). The variant GFDLDEYGIS / VIYADGMRTVYADSVK / GNVAGTFDL [En_Gen] gave 440 pM (6 of 6 replicates). The variant GFDLDEYGIS / VIYADGMRTAYSDSVK / GNQAGTFDI [En_Gen] gave 250 pM (6 of 6 replicates).

The variant GFNLMEYGIS / VIYADGTRTYYAGTVK / GELKGTFVD [En_Gibbs] showed nd (0 of 6 replicates). The variant GFDIDEYGIS / VIYADGRRTFYADSVK / GTNAGTFDE [En_HC] gave 1.0 nM (6 of 6 replicates). The variant GFDLESYGIS / VIYADGSRTAYADSVK / GNVAGTFNL [En_HC] gave 590 pM (1 of 6 replicates). The variant GFDLNEYGIS / VIYADGKRTAYQDSVK / GNNAGTFDV [En_Gen] gave 600 pM (6 of 6 replicates).

Extract of 4 entries:

With GFDLNEYGIS / VIYADGHRTFYSDSVK / GQSAGTFDV [En_HC] the result was 490 pM (6 of 6 replicates).
With GFDLNEYGIS / VIYADGSRTFYADSVK / GEVAGTFDV [En_Gen] the result was 430 pM (6 of 6 replicates).
With GFNLDEYGIS / VIYADGQRTAYDQAVK / GRMGTWNIV [En_Gibbs] the result was 490 pM (6 of 6 replicates).
With GFDIDEYGIS / VIYADGRRTFYADSVK / GTNAGTFDE [En_HC] the result was 1.0 nM (6 of 6 replicates).

In the paper, a design with two or fewer of six values counts as a poor binder.
The parent sequence was in this pool as ten entries: three were never detected, three once, and four in most replicates, with averages from 2.2 nM to 240 nM.
Empty control strains, which show no peptide, gave a signal in 1% of pairings with all heavy chain designs; the median was 120 nM and 95% of these signals were weaker than 7.0 nM. No background was subtracted.
A sequence measured in both rounds can read differently, since the two assays cover different ranges.